Measurements taken from ChEMBL document CHEMBL5230108, “Computational methods-guided design of modulators targeting protein-protein interactions (PPIs)” (Eur J Med Chem, 2020).

By UniProt entry, the sequences of proteins in these tests, tags left out. Residues count along the entry.
UniProt Q03164, 2719-3969 limits assumed: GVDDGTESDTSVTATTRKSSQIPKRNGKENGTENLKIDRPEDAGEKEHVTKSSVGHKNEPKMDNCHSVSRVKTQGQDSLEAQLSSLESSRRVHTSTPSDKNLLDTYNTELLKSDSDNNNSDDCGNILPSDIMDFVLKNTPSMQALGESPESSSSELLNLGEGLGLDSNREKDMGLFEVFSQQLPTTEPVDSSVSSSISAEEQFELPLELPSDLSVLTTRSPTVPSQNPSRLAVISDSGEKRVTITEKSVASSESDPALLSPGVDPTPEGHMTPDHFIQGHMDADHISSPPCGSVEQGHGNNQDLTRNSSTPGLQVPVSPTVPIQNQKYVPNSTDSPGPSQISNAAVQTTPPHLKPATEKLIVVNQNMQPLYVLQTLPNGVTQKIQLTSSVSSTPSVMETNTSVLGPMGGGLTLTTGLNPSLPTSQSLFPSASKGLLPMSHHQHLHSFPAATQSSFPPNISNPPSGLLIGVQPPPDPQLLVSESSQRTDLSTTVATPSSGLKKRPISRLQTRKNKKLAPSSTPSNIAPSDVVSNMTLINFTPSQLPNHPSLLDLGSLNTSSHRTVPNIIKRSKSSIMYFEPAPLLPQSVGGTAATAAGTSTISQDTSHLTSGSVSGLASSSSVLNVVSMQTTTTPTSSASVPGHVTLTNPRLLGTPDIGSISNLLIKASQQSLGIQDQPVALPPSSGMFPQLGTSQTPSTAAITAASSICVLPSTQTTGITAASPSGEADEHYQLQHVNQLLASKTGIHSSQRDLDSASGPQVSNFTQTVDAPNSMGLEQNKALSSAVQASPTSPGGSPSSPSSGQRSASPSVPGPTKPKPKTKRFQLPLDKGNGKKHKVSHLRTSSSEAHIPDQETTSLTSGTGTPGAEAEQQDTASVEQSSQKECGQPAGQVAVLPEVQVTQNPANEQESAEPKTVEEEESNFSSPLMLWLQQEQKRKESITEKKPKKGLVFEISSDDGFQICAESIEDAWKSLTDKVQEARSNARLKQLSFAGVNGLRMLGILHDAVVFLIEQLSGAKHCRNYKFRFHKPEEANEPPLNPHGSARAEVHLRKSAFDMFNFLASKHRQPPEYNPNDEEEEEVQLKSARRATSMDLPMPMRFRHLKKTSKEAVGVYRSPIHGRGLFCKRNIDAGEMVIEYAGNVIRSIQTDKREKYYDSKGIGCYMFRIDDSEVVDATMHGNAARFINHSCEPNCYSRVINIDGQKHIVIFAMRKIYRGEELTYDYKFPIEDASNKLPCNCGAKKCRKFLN
UniProt Q03164, 1-2718 limits assumed: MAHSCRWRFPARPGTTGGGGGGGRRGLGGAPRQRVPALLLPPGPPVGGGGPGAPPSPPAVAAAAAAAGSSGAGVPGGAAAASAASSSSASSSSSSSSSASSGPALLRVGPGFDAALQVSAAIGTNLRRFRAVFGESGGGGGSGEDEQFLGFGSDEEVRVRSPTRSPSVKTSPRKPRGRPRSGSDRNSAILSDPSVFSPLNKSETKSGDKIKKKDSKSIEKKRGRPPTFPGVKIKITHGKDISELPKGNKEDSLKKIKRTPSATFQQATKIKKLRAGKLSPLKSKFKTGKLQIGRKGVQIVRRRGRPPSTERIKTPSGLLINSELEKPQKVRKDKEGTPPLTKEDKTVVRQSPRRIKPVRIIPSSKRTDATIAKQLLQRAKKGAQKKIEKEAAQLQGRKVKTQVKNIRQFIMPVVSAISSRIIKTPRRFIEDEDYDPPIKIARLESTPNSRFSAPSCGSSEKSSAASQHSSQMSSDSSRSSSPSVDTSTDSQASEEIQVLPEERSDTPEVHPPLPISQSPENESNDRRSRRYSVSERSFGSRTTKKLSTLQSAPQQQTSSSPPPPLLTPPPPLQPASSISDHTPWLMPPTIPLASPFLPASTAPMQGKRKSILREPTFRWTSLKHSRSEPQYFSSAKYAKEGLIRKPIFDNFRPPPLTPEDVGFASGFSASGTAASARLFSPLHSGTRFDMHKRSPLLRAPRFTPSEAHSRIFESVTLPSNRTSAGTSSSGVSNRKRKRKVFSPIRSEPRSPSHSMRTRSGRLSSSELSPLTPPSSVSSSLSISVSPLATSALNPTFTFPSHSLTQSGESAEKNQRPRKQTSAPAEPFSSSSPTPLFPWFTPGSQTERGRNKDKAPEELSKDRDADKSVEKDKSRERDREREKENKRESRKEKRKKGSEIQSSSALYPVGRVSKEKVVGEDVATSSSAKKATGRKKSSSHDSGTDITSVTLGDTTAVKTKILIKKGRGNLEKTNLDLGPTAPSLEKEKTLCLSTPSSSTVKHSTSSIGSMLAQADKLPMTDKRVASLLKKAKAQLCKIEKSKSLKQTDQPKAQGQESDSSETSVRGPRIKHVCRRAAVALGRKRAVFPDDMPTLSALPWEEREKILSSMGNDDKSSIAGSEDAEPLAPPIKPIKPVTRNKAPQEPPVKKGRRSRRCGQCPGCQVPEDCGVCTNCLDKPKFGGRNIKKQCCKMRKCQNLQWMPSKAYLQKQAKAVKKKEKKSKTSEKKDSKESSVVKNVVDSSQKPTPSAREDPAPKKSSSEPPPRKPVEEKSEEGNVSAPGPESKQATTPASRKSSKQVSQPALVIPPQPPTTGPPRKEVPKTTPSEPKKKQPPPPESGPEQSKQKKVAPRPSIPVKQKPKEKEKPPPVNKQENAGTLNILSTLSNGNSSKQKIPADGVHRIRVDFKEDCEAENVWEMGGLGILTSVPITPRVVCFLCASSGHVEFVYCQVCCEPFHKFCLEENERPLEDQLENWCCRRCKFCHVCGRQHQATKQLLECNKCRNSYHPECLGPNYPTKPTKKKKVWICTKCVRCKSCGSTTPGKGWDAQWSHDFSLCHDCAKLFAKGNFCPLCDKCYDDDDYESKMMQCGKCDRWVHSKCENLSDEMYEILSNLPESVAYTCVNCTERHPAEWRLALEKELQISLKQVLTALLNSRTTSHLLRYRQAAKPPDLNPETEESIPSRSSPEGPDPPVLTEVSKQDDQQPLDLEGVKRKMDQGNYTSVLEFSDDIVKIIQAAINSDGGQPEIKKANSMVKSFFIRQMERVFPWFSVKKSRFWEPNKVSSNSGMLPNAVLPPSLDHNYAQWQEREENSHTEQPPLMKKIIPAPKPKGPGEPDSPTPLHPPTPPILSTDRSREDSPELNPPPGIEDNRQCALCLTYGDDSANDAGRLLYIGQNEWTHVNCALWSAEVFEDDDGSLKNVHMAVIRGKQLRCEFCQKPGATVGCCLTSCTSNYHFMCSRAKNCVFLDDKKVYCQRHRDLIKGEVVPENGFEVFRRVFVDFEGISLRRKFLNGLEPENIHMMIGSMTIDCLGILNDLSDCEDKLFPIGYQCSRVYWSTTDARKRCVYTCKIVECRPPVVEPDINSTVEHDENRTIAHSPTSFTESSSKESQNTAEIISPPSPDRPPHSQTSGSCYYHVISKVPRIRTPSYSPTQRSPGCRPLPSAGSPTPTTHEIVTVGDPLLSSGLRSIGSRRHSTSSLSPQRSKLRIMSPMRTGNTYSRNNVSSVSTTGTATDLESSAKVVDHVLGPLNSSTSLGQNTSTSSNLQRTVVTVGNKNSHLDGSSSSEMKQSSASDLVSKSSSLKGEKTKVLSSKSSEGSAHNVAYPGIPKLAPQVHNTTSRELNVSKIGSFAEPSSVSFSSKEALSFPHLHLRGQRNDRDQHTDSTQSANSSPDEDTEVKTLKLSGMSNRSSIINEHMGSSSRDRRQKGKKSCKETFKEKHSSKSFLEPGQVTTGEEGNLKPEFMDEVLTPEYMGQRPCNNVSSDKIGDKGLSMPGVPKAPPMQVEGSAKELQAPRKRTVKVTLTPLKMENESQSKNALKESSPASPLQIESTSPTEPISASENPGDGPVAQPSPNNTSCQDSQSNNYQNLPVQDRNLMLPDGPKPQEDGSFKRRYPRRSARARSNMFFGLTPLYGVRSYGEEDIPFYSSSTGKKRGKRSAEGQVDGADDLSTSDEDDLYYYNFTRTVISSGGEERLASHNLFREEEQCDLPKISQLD

target: T1, Adenomatous polyposis coli protein (Homo sapiens, UniProt P25054); assay: Binding affinity to APC (unknown origin) assessed as dissociation constant by ITC analysis

For CCC(C)C(NC(=O)C(C)NC(=O)[C@H](CC(C)C)NC(=O)[C@H](CCC(N)=O)NC(=O)[C@H](CCC(=O)O)NC(=O)CNC(=O)CNC(C)=O)C(N)=O (stereo partly drawn), the Kd was 0.036 µM.

target: Histone-lysine N-methyltransferase 2A (Homo sapiens, UniProt Q03164); assay: Competitive binding affinity to full length wild type MLL (unknown origin)

Point of comparison: CC[C@H](C)[C@H](NC(=O)[C@H](CC(=O)O)NC(=O)[C@H](CO)NC(=O)CCNC(=S)Nc1ccc(-c2c3ccc(=O)cc-3oc3cc(O)ccc23)c(C(=O)O)c1)C(=O)N[C@@H](CSCc1ccccc1)C(=O)N[C@@H](CC(=O)O)C(=O)N[C@@H](Cc1ccccc1)C(=O)N[C@H](C(=O)N[C@@H](CC(C)C)C(=O)N[C@@H](CCCCN)C(=O)N[C@@H](CC(N)=O)C(=O)N[C@@H](Cc1ccc(O)cc1)C(=O)N1CCC[C@H]1C(N)=O)[C@@H](C)CC, Kd 7.3 µM. Against it:
- CC[C@H](C)[C@H](NC(=O)[C@H](CC(=O)O)NC(=O)[C@H](CO)NC(=O)CCNC(=S)Nc1ccc(-c2c3ccc(=O)cc-3oc3cc(O)ccc23)c(C(=O)O)c1)C(=O)N[C@@H](CSCc1ccccc1)C(=O)N[C@@H](CC(=O)O)C(=O)N[C@@H](Cc1ccccc1)C(=O)N[C@H](C(=O)N[C@@H](CC(C)C)C(=O)N[C@@H](CCCCN)C(=O)N[C@@H](CC(N)=O)C(=O)N[C@@H](Cc1ccc(O)cc1)C(=O)N1CCC[C@H]1C(=O)O)[C@@H](C)CC — within 1.5-fold, 6 µM
- CC[C@H](C)[C@H](NC(=O)[C@H](CC(=O)O)NC(=O)[C@H](CO)NC(=O)CCNC(=S)Nc1ccc(-c2c3ccc(=O)cc-3oc3cc(O)ccc23)c(C(=O)O)c1)C(=O)N[C@@H](CSCc1ccccc1)C(=O)N[C@@H](CC(=O)O)C(=O)N[C@@H](Cc1ccccc1C)C(=O)N[C@H](C(=O)N[C@@H](CC(C)C)C(=O)N[C@@H](CCCCN)C(=O)N[C@@H](CC(N)=O)C(=O)N[C@@H](Cc1ccc(O)cc1)C(=O)N1CCC[C@H]1C(=O)O)[C@@H](C)CC — 2.2-fold lower, 3.3 µM
- CC[C@H](C)[C@H](NC(=O)[C@H](CC(=O)O)NC(=O)[C@H](CO)NC(=O)[C@@H]1CCCN1C(=O)[C@H](CC(C)C)NC(=O)[C@@H](NC(=O)[C@H](CC(N)=O)NC(=O)CNC(=O)[C@H](CS)NC(=O)[C@H](CC(=O)O)NC(C)=O)[C@@H](C)CC)C(=O)N[C@@H](CCSC)C(=O)N[C@@H](CC(=O)O)C(=O)N[C@@H](Cc1ccccc1)C(=O)N[C@H](C(=O)N[C@@H](CC(C)C)C(=O)N[C@@H](CCCCN)C(=O)N[C@@H](CC(N)=O)C(=O)N[C@H](C(=O)N1CCC[C@H]1C(=O)O)[C@@H](C)O)C(C)C — 7.3-fold lower, 1 µM
- CC[C@H](C)[C@H](NC(=O)[C@H](CC(=O)O)NC(=O)[C@H](CO)NC(=O)CCNC(=S)Nc1ccc(-c2c3ccc(=O)cc-3oc3cc(O)ccc23)c(C(=O)O)c1)C(=O)N[C@@H](CSCc1ccccc1)C(=O)N[C@@H](CC(=O)O)C(=O)N[C@@H](Cc1ccccc1)C(=O)N[C@H](C(=O)N[C@@H](CC(C)C)C(=O)N[C@@H](CCCCN)C(=O)N[C@@H](CC(N)=O)C(=O)N[C@H](C(=O)N1CCC[C@H]1C(N)=O)[C@@H](C)O)C(C)C — higher, > 15 µM
- CC[C@H](C)[C@H](NC(=O)[C@H](CC(=O)O)NC(=O)[C@H](CO)NC(=O)CCNC(=S)Nc1ccc(-c2c3ccc(=O)cc-3oc3cc(O)ccc23)c(C(=O)O)c1)C(=O)N[C@@H](CSCc1ccccc1)C(=O)N[C@@H](CC(=O)O)C(=O)N[C@@H](Cc1ccccc1)C(=O)N[C@H](C(=O)N[C@@H](CC(C)C)C(=O)N[C@@H](CCCCN)C(=O)N[C@@H](CC(N)=O)C(=O)N[C@@H](Cc1ccc(O)cc1)C(=O)N1CCC[C@H]1C(N)=O)C(C)C — within 1.5-fold, 8.3 µM

Point of comparison: CC[C@H](C)[C@H](NC(=O)[C@H](CC(=O)O)NC(=O)[C@H](CO)NC(=O)CCNC(=S)Nc1ccc(-c2c3ccc(=O)cc-3oc3cc(O)ccc23)c(C(=O)O)c1)C(=O)N[C@@H](CSCc1ccccc1)C(=O)N[C@@H](CC(=O)O)C(=O)N[C@@H](Cc1ccccc1)C(=O)N[C@H](C(=O)N[C@@H](CC(C)C)C(=O)N[C@@H](CCCCN)C(=O)N[C@@H](CC(N)=O)C(=O)N[C@@H](Cc1ccc(O)cc1)C(=O)N1CCC[C@H]1C(=O)O)[C@@H](C)CC, Ki 24 µM. Against it:
- CC[C@H](C)[C@H](NC(=O)[C@H](CC(=O)O)NC(=O)[C@H](CO)NC(=O)CCNC(=S)Nc1ccc(-c2c3ccc(=O)cc-3oc3cc(O)ccc23)c(C(=O)O)c1)C(=O)N[C@@H](CSCc1ccccc1)C(=O)N[C@@H](CC(=O)O)C(=O)N[C@@H](Cc1ccccc1)C(=O)N[C@H](C(=O)N[C@@H](CC(C)C)C(=O)N[C@@H](CCCCN)C(=O)N[C@@H](CC(N)=O)C(=O)N[C@@H](Cc1ccc(O)cc1)C(=O)N1CCC[C@H]1C(N)=O)[C@@H](C)CC — within 1.5-fold, 32 µM
- CC[C@H](C)[C@H](NC(=O)[C@H](CC(=O)O)NC(=O)[C@H](CO)NC(=O)CCNC(=S)Nc1ccc(-c2c3ccc(=O)cc-3oc3cc(O)ccc23)c(C(=O)O)c1)C(=O)N[C@@H](CSCc1ccccc1)C(=O)N[C@@H](CC(=O)O)C(=O)N[C@@H](Cc1ccccc1C)C(=O)N[C@H](C(=O)N[C@@H](CC(C)C)C(=O)N[C@@H](CCCCN)C(=O)N[C@@H](CC(N)=O)C(=O)N[C@@H](Cc1ccc(O)cc1)C(=O)N1CCC[C@H]1C(=O)O)[C@@H](C)CC — within 1.5-fold, 22 µM
- CC[C@H](C)[C@H](NC(=O)[C@H](CC(=O)O)NC(=O)[C@H](CO)NC(=O)[C@@H]1CCCN1C(=O)[C@H](CC(C)C)NC(=O)[C@@H](NC(=O)[C@H](CC(N)=O)NC(=O)CNC(=O)[C@H](CS)NC(=O)[C@H](CC(=O)O)NC(C)=O)[C@@H](C)CC)C(=O)N[C@@H](CCSC)C(=O)N[C@@H](CC(=O)O)C(=O)N[C@@H](Cc1ccccc1)C(=O)N[C@H](C(=O)N[C@@H](CC(C)C)C(=O)N[C@@H](CCCCN)C(=O)N[C@@H](CC(N)=O)C(=O)N[C@H](C(=O)N1CCC[C@H]1C(=O)O)[C@@H](C)O)C(C)C — 8-fold lower, 3 µM
- CC[C@H](C)[C@H](NC(=O)[C@H](CC(=O)O)NC(=O)[C@H](CO)NC(=O)CCNC(=S)Nc1ccc(-c2c3ccc(=O)cc-3oc3cc(O)ccc23)c(C(=O)O)c1)C(=O)N[C@@H](CSCc1ccccc1)C(=O)N[C@@H](CC(=O)O)C(=O)N[C@@H](Cc1ccccc1)C(=O)N[C@H](C(=O)N[C@@H](CC(C)C)C(=O)N[C@@H](CCCCN)C(=O)N[C@@H](CC(N)=O)C(=O)N[C@@H](Cc1ccc(O)cc1)C(=O)N1CCC[C@H]1C(N)=O)C(C)C — 2.4-fold higher, 58 µM

target: T1, Adenomatous polyposis coli protein; assay: Binding affinity to APC (unknown origin) assessed as inhibition constant by ITC analysis

Work on CCC(C)C(NC(=O)C(C)NC(=O)[C@H](CC(C)C)NC(=O)[C@H](CCC(N)=O)NC(=O)[C@H](CCC(=O)O)NC(=O)CNC(=O)CNC(C)=O)C(N)=O (stereo partly drawn) yielded a Ki of 44.6 µM.
